# Measurements from patent US10441654B2 (priority 2014, dated 2019).
# System: SNB75 cells
# Test: Alamar blue viability assay in SNB75 cells
# Type: cell-based, human
# Conditions: read-out: EC50 of SMC therapy; SNB75, with low dose of VSVΔ51 (0.1 MOI)
structure (smiles),measurement,value
CN[C@@H](C)C(=O)N[C@H](C(=O)N1CCC[C@H]1c1nc(C(=O)c2ccc(F)cc2)cs1)C1CCCCC1 [LCL161],EC50,21.9 nM
